Assays:
EGFR = assay: Western blot, EGFR activation in U87EGFRwt cells; assay type: cell-based, human; conditions: serum starved, cetuximab overnight, EGF 50 ng/ml 15 min
Method: Western blot analysis was performed according to standard protocols.
Reagents: Recombinant human TNF and EGF were obtained from Peprotech (Rocky Hill, NJ). Erlotinib and XL765 was purchased from SelleckChem (Houston, TX). Afatinib was bought from AstaTech, Inc. (Bristol, PA). Axl inhibitor R428, ERK inhibitor (U0126) and thalidomide were from Cayman Chemical (Ann Arbor, MI). Enbrel (Etanercept) was purchased from Mckesson Medical y (San Francisco CA). The JNK inhibitor SP600125, p38 Inhibitor SB203580, and NF-αB inhibitor BMS-345541 were obtained from EMD Millipore (Billerica, MA). Necrostatin-1 was obtained from Fisher Scientific (Pittsburgh, PA). LPS was purchased from Sigma (St. Louis, MO). Cetuximab was provided by Imclone and used at a concentration of 10 μg/ml overnight.

ERK = assay: Western blot, ERK activation (pERK) in glioma cells; conditions: U87EGFRwt cells, serum starved; cetuximab overnight; EGF 50 ng/ml 15 min

## Cetuximab: blocks ligand binding to the EGFR; provided by Imclone
EGFR
  Basal EGFR activation: could be inhibited
ERK
  Basal ERK activation: could be inhibited

— US12648948B2, “Methods and compositions for treating cancer” (UNITED STATES GOVERNMENT AS REPRESENTED BY THE DEPARTMENT …, priority 2017, dated 2026)
